Data on one molecule can be found in patent US4215215A, “9-Phenyl-nonate traene compounds” (Hoffmann-La Roche Inc., priority 1979, dated 1980).

Molecules are shown by their SMILES. Like-named read-outs stand apart in the source and are kept apart here. Some results are limits rather than exact numbers.

This data set relates to mice. The conditions noted are these: mouse, in vivo, ip.

On to `COc1cc(C)c(C=CC(C)=CC=CC(C)=CC(=O)O)c(C)c1C` [Substance A, 9-(4-methoxy-2,3,6-trimethyl-phenyl)-3,7-dimethyl-nona-2,4,6,8-tetraen-1-oic acid], for which the LD10 is, setting by setting: (1440 min) > 4000 mg/kg; (14400 min) 580 mg/kg; (28800 min) 580 mg/kg. For the same molecule, the LD90 by setting is: (1440 min) > 4000 mg/kg; (14400 min) 890 mg/kg; (28800 min) 890 mg/kg.
